Source: PubChem (Broad Institute)
S100A4 MyoIIA = S100A4-myosin IIA interaction inhibition. P26447. S100A4/TAMRA-MyoIIA peptide fluorescence polarization. inhibition, % at 10.7 µM. 360,000 tested, 0.14% active. AID 652163;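 active = mean inhibition of at least 70% across replicates, with every replicate also reaching that level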
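System – human S100A4 monomer protein, biochemical binding assay · Buffer or medium – Calcium-containing HEPES buffer, pH 7.2 · Timing – 5 min between mix addition and reading · Also added – TAMRA-labelled myosin IIA heavy-chain peptide probe, 5 nM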
AF4-AF9 inh = inhibitors of human MLL-AF4/AF9 interaction; P42568; AlphaScreen, biotin-AF4 peptide binding to FLAG-AF9; inhibition, % at 10 µM; 350,000 tested, 0.47% active; AID 651704;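 active = every replicate reaching a set inhibition limit, whatever the replicate mean, cut at about 25% in these data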;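 also: 0% = plate neutral control median and 100% = total signal loss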
ARNT TACC3 PPI = ARNT/TACC3 interaction disruption; 390,000 tested, 0.66% active; AlphaScreen His-ARNT PAS-B/GST-TACC3 binding, luminescence; TACC3 fragment carries E629A point mutation; inhibition, % at 9.99 µM;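 active = mean inhibition of replicates at least 50% and at least half of replicates each reaching 50%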;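 also: 0% = complete ARNT plus TACC3 wells and 100% = ARNT alone without TACC3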
E-selectin induc = induces E-selectin expression in human endothelial cells. activation, % at 7.58 µM. P16581. HUVEC E-selectin immunofluorescence imaging; normalized: neutral wells 0, TNF-alpha wells 100. 260,000 tested, 0.37% active;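 active = mean E-selectin-positive cell signal at least 10% of the positive control, reached in at least 60% of replicates, without over 20% cell loss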
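Test system: HUVEC | Signal: Immunofluorescence imaging | Read-out: Percent E-selectin-positive cells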
UUG fidelity = alters start codon recognition fidelity in yeast | S. cerevisiae UUG-firefly luciferase reporter, luminescence/redox ratio | activity score, % at 18.7 µM | hit rate 0.13% among 350,000 | AID 602363;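 active means replicate mean at a twofold rise or more, about +100% in these data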;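 further: firefly luciferase made from a UUG start codon reports start codon fidelity; reporter light over untreated wells divided by growth signal over untreated wells; some hits fall short of that in this replicate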
ERAP1 inh = blocks human ERAP1 aminopeptidase activity; Q9NZ08; recombinant ERAP1, Leu-AMC fluorescence, 60 min; inhibition, % at 10.7 µM; 340,000 tested, 0.15% active;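 active = mean replicate inhibition of at least 30%, or all replicates individually reaching that 30% level; inactive = mean below 30% and not every replicate reaching it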;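 also: 0% = neutral control wells and 100% = L-leucinethiol positive control wells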
* hit, by the source's call; x = not tested or not shown. In the library only some 1.3% were active in any assay of this set; here they are far more common.

#	Compound	S100A4 MyoIIA	ERAP1 inh	UUG fidelity
1	CN1C(=O)c2cc(NC(=O)c3cccc(F)c3)ccc2OC[C@H]2O[C@@H](CC(=O)NCc3ccccc3)CC[C@H]21	x	x	24
2	Cc1c(C)c2ccc(O)c(CN3CCCC3)c2oc1=O	0	51*	-2
3	CCc1c(C)c2ccc(O)c(CN3CCCC3)c2oc1=O	-4	10	2
4	N#CC12COC3(CCCCC3C1(C#N)C#N)OC2=N (stereo not drawn)	79*	12	x
5	CNC[C@@H]1OCCCC[C@@H](C)Oc2ccc(NS(=O)(=O)c3c(C)noc3C)cc2C(=O)N([C@@H](C)CO)C[C@H]1C	x	x	-20
6	O=C(Nc1cccc(O)c1)c1ccc(C(F)(F)F)cc1	0	0	x
7	O=C(Nc1cccc(C(F)(F)F)c1)c1cc[n+]([O-])cc1	-1	-4	x
8	CCc1nc(Nc2ccc(OC)cc2OC)c2oc3ccccc3c2n1	0	32*	-5
9	COc1ccc(-c2ccc3c(c2)[C@@H]2[C@@H](CCN2C(=O)Nc2ccc(F)cc2)[C@H](CO)N3C)cc1	-8	-4	x
10	COc1cccc(-c2ccc3c(c2)[C@@H]2[C@@H](CCN2C(=O)NC2CCCC2)[C@@H](CO)N3C)c1	4	1	-7
11	COc1ccc(NC(=O)N2CC[C@@H]3[C@H]2c2cc(-c4cccc(F)c4)ccc2N(C)[C@H]3CO)cc1	x	x	-14
12	CN1c2ccc(-c3cccc(C#N)c3)cc2[C@H]2[C@H](CCN2S(=O)(=O)c2ccccc2F)[C@H]1CO	123*	4	0

#	E-selectin induc	ARNT TACC3 PPI	AF4-AF9 inh
1	0	4	x
2	x	3	0
3	0	x	-1
4	5	4	7
5	x	-19	x
6	x	3	2
7	27*	-12	2
8	0	-5	0
9	1	x	30*
10	0	5	5
11	0	-4	-4
12	2	-3	5

Retrieved one by one from above:
#	Compound	S100A4 MyoIIA	ERAP1 inh	UUG fidelity
7	O=C(Nc1cccc(C(F)(F)F)c1)c1cc[n+]([O-])cc1	-1	-4	x
9	COc1ccc(-c2ccc3c(c2)[C@@H]2[C@@H](CCN2C(=O)Nc2ccc(F)cc2)[C@H](CO)N3C)cc1	-8	-4	x
10	COc1cccc(-c2ccc3c(c2)[C@@H]2[C@@H](CCN2C(=O)NC2CCCC2)[C@@H](CO)N3C)c1	4	1	-7
12	CN1c2ccc(-c3cccc(C#N)c3)cc2[C@H]2[C@H](CCN2S(=O)(=O)c2ccccc2F)[C@H]1CO	123*	4	0

#	E-selectin induc	ARNT TACC3 PPI	AF4-AF9 inh
7	27*	-12	2
9	1	x	30*
10	0	5	5
12	2	-3	5

More entries.
#	Compound	S100A4 MyoIIA	ERAP1 inh	UUG fidelity
13	Cc1cccc(S(=O)(=O)N2CC[C@@H]3[C@H](CO)N(C)c4ccc(C#Cc5ccc(F)cc5)cc4[C@@H]32)c1	x	x	-1
14	COc1ccc(-c2ccc3c(c2)[C@@H]2[C@@H](CCN2C(=O)NC2CCCC2)[C@H](CO)N3C)cc1	82*	-1	x
15	CN1c2ccc(C3=CCCCC3)cc2[C@@H]2[C@@H](CCN2C(=O)C2CCCC2)[C@H]1CO	-3	-1	1
16	CN1c2ccc(C#Cc3cccnc3)cc2[C@@H]2[C@@H](CCN2C(=O)C2CCC2)[C@H]1CO	4	-1	x
17	CN1c2ccc(C3=CCCCC3)cc2[C@H]2[C@H](CCN2C(=O)C2CCCCC2)[C@H]1CO	-2	3	x
18	CN1c2ccc(C#Cc3cccnc3)cc2[C@@H]2[C@@H](CCN2C(=O)C2CCCC2)[C@@H]1CO	-14	-1	x
19	COc1ccc(-c2ccc3c(c2)[C@H]2[C@H](CCN2C(=O)C2CCCC2)[C@H](CO)N3C)cc1	10	3	x
20	CN1c2ccc(-c3cccc(F)c3)cc2[C@H]2[C@H](CCN2C(=O)c2ccccc2F)[C@H]1CO	89*	0	12
21	Cc1noc(C)c1S(=O)(=O)Nc1ccc2c(c1)C(=O)N([C@H](C)CO)C[C@H](C)[C@H](CN(C)S(=O)(=O)c1ccccc1)OCCCC[C@H](C)O2	41	3	-11
22	C[C@@H]1CN([C@H](C)CO)C(=O)c2cc(NS(=O)(=O)c3ccc(F)cc3)ccc2O[C@@H](C)CCCCO[C@H]1CN(C)Cc1ccc(Cl)c(Cl)c1	49	-2	15
23	COCC#Cc1ccc([C@@H]2[C@@H](C#N)N(C(=O)NC3CCCC3)[C@@H]2CO)cc1	-6	0	6
24	Cc1cc(N2CCN(c3ncccn3)CC2)nc2c(C)cccc12	-12	-2	-2

#	E-selectin induc	ARNT TACC3 PPI	AF4-AF9 inh
13	x	48*	x
14	0	x	36*
15	0	8	2
16	64*	x	10
17	-1	x	26*
18	0	x	14
19	0	x	26*
20	-1	2	1
21	0	-5	3
22	0	1	7
23	0	12	-2
24	0	-3	41*

The list goes on:
#	Compound	S100A4 MyoIIA	ERAP1 inh	UUG fidelity
25	CO[C@H]1CN(C)C(=O)c2cc(NC(=O)c3cnccn3)ccc2OC[C@H](C)N(C(C)=O)C[C@@H]1C	-26	3	-11
26	C[C@H](NC(=O)C[C@H]1CC[C@H](NC(=O)C2CCOCC2)[C@@H](CO)O1)c1ccccc1	9	0	-11
27	C[C@H](NC(=O)C[C@@H]1CC[C@H](NC(=O)C2CCOCC2)[C@@H](CO)O1)c1ccccc1	111*	1	-4
28	O=C(CN1CCOCC1)N[C@H]1CC[C@@H](CCNC(=O)C2CCC2)O[C@H]1CO	-17	-4	x
29	CC1(C)Cc2ccccc2C2=NNC(=O)C2=N1	1	-1	7
30	C[C@H]1CN([C@@H](C)CO)C(=O)c2cccc(NC(=O)Nc3cccc4ccccc34)c2O[C@H]1CN(C)S(C)(=O)=O	-7	0	7
31	Cc1noc(C)c1S(=O)(=O)Nc1ccc2c(c1)C(=O)N([C@H](C)CO)C[C@@H](C)[C@H](CN(C)C(=O)Nc1ccc3c(c1)OCO3)O2	-7	0	19
32	O=C(c1ccccc1[N+](=O)[O-])N1CCN(c2ccc(N3CCOCC3)nn2)CC1	1	2	-21
33	Cc1ccccc1C(=O)N1CCN(c2ccc(N3CCOCC3)nn2)CC1	1	-2	-6
34	COc1ccc(-c2cnc3c(c2)C(=O)N([C@@H](C)CO)C[C@H](C)[C@H](CN(C)C(=O)C2CC2)O3)cc1	x	x	-4
35	O=C(NCCN1CCCCC1)c1ccc(/C=N/O)nc1	-5	-3	-3
36	NCCCNC(=O)c1ccc(/C=N/O)nc1	-5	-3	-14

#	E-selectin induc	ARNT TACC3 PPI	AF4-AF9 inh
25	1	10	-3
26	0	5	2
27	0	-4	2
28	0	2	-2
29	x	61*	-6
30	10	-5	1
31	x	2	-1
32	58*	x	-3
33	x	4	1
34	1	x	x
35	x	27	-1
36	2	78*	0

(list continues)
#	Compound	S100A4 MyoIIA	ERAP1 inh	UUG fidelity
37	COc1cc(NC(=O)C/C(C)=N/NC(=O)C(=O)NC2CCCCC2)c(OC)cc1Cl	-4	-3	x
38	COc1cc(NC(=O)C/C(C)=N/NC(=O)C2CCCCC2)c(OC)cc1Cl	-41	-3	-8
39	CC(=O)c1c(O)cc(C)n(-c2ccc(F)cc2)c1=O	1	2	x
40	CC(=O)c1c(O)cc(C)n(Nc2nc(C)cc(C)n2)c1=O	x	x	-1
41	C[C@@H]1CN([C@@H](C)CO)C(=O)Cc2cc(NC(=O)Nc3ccc(F)cc3)ccc2O[C@@H]1CN(C)Cc1ccc(C(=O)O)cc1	11	6	18
42	COc1ccc(CN(C)C[C@H]2Oc3ccc(NC(=O)Nc4ccc(F)cc4)cc3CC(=O)N([C@@H](C)CO)C[C@H]2C)cc1	-5	-2	0

#	E-selectin induc	ARNT TACC3 PPI	AF4-AF9 inh
37	11	-5	-1
38	56*	-1	3
39	x	-2	-2
40	x	73*	x
41	80*	1	-4
42	x	4	-1
